Test results reported in US10408836B2 (priority 2013, dated 2019).

Molecular target: Recombinant N1 protein A/California/04/09 (N1pdm/09-R) (Influenza A virus (H1N1), UniProt C3W5S3)

Q: How did the IC50 turn out when `CC(=O)N[C@H]1[C@H]([C@H](O)[C@H](O)CO)OC(C(=O)O)=C[C@@H]1N=C(N)N` [Zan, Zanamivir] was run?
A: The IC50 was 3.7 nM.
